Experimental data: paper PMC11676982, “Heterotropic Activation of Cytochrome P450 3A4 by Perillyl Alcohol” (Pharmaceutics, 2024)

Test system: CYP isoforms (CYP1A2, CYP2A6, CYP2B6, CYP2C8, CYP2C9, CYP2C19, CYP2D6, CYP2E1, and CYP3A4)
Assay: Direct CYP inhibition assay in pooled HLMs, nine CYP isoforms (summary statement)
Conditions: up to 50 μM

limonene [LMN]
Inhibition of activities of CYP isoforms (words): not significantly inhibited
